Measured values as given in patent publication US6602852B1, “Basic peptides and pharmaceutical compositions containing same” (NST NeuroSurvival Technologies, Ltd., priority 1998, dated 2003).

Assay: Pharmacokinetic studies: appearance and disappearance of staining in liver
Assay type: in vivo
Conditions: mice
Protocol: The appearance and disappearance of the compound NST302 from the liver following its injection to mice. Animals treated or untreated with anti-Fas antibody were injected with the NST302 compound, and its detection was tested 5, 15, 20, 30, 60, 90, 120 min after its injection.
While dealing with a biological compound that is destined to be used for diagnostic purposes, the time course that the compound is detectable in the body should be considered. Pharmacokinetics appearance and disappearance of the compound NST302 was examined in the following time intervals: 5, 15, 20, 30, 60, 90, 120 min after injection of the compound (FIG. 9).

Substance: Myristate-KKKKKRFSFKKSFKLSGFSFKKNKKK (SEQUENCE ID NO. 2)-(biotin) [NST302]
- liver staining two hours after injection: no staining was detected; also recorded: no staining was found

Entries after “also recorded” stand apart in the source; their conditions may differ.
